Values of other authors, collected in patent US20210169883A1, “METHOD OF TREATING AGGRESSION WITH OREXIN RECEPTOR ANTAGONISTS” (Icahn School of Medicine at Mount Sinai, priority 2018, published 2021).

Details: variety of patient populations; cited from earlier work

Cc1cc(C)nc(N2CC3CN(C(=O)c4c(F)cccc4-n4nccn4)CC3C2)n1 (stereo not shown) [seltorexant]
tolerability in patient populations: well tolerated
